Assay results reported in ChEMBL document CHEMBL5512619, “Anticancer mechanism of coumarin-based derivatives” (Eur J Med Chem, 2024).

Key:
Calf thymus DNA = details: Bos taurus
Carbonic anhydrase 2 = Carbonic anhydrase 2 (Homo sapiens, UniProt P00918); assay: Binding affinity to human CA2 assessed as inhibition constant incubated for 6 hrs by phenol red dye based stopped flow CO2 hydration assay

Row | KSV (Calf thymus DNA) | Ki (Carbonic anhydrase 2) | SMILES
1 | 4.27 10^5/M | – | CC(=O)Nc1nnc(SCC(=O)Nc2ccc3oc(=O)ccc3c2)s1
2 | 4.27 10^5/M | – | O=C(COc1cccc(O)c1)Nc1ccc2oc(=O)ccc2c1
3 | – | > 10 µM | Cc1cc(=O)oc2cc(OCc3cn(CCCCCCCCCCCCOc4ccc5ccc(=O)oc5c4)nn3)ccc12
